Laboratory results from patent US20260008758A1, “LINEAR DIPEPTIDYL PEPTIDASE 1 INHIBITORS AND USES THEREOF” (Insmed Incorporated, priority 2024, published 2026).
pIC50: −log10 of the molar value. Like-named read-outs stand apart in the source and are kept apart here.

Sequences of proteins named here, by UniProt entry; tags and fusion partners are left off. Residues count along the entry.
UniProt P53634, 395-463: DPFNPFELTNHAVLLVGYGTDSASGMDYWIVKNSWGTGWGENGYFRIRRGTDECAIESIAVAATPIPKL
UniProt P53634, 25-134: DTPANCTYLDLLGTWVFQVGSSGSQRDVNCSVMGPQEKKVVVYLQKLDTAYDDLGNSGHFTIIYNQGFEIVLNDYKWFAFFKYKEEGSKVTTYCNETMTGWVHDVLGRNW
UniProt P53634, 231-394: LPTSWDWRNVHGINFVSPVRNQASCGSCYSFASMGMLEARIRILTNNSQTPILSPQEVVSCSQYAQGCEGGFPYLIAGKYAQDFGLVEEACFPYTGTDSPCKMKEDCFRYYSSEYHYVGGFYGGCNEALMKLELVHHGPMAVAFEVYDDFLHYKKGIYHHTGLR

Experiments:
[1] = biological target: human DPP1 enzyme (Homo sapiens (Human), UniProt P53634); test: Human DPP1 enzyme IC50 assay; format: biochemical
Protocol: Test articles were applied to activated human DPP1 enzyme in Assay Buffer (25 mM MES pH 6.0, 50 mM NaCl, 5 mM DTT) in a total reaction volume of 125 μL. 25 μL of compound in Assay Buffer plus 5% DMSO was first added to 50 μL of activated human DPP1 enzyme at a concentration of 1 ng/μL and allowed to pre-incubate for 10 minutes at 37° C. after which 50 μL of 1000 μM H-Gly-Arg-AMC substrate (Bachem; St. Torrance, CA) was added, giving final substrate concentration of 400 μM and a final DMSO concentration of 1%. Substrate cleavage was measured for 90 minutes at 37° C., with fluorescence at Excitation/Emission 350/450 nm measured every 5 minutes. DPP1 concentration was interpolated based on its activity relative to a standard curve of activated human recombinant DPP1 enzyme. IC50 values for each compound were calculated via the XLFit (IDBS Version 5.3.1.3) Add-On to Microsoft Excel using the four parameter fit equation y={A+[(B-A)]/[1+((C/x)^D)]}, which appears as equation number 205 (4 Parameter Logistic Model or Sigmoidal Dose-Response Model) in XLFit. Default constraints were used for each Parameter. IC50 was defined as the compound concentration at which 50% of enzyme activity was inhibited when compared to the no-compound control.

[2] = biological target: DPP1 in HL-60 cells (Homo sapiens (Human), UniProt P53634); test: DPP1 Cell IC50 assay; format: cell-based; conditions: H-Gly-Phe-AFC substrate, 60 min pre-incubation
Protocol: Media was changed every three to four days and cells were not allowed to exceed 1×10^6 cells per mL. Prior to assay, cells were collected by centrifugation at 500 rcf for 3 minutes, resuspended in PBS and counted. Cells were diluted in PBS to a concentration of 5×10^5 live cells per mL and transferred to black 96-well plates for assay, 60 μL per well. Test articles were diluted in PBS plus 0.5% DMSO, and 20 μL was added to each assay well. Compound was allowed to pre-incubate with cells with gentle shaking at 100 rpm for 60 minutes at 37° C. in a cell culture incubator maintained at 5% CO2, after which 20 μL of 500 μM H-Gly-Phe-AFC substrate (MP Biomedicals; Solon, OH) was added to each well. Plates were returned to the incubator with shaking at 100 rpm for 30 minutes, after which fluorescence was measured at Excitation/Emission 400/505 nm. % Inhibition was calculated from RFU values compared to control cell wells that received only PBS plus 0.5% DMSO. IC50 values for each compound were calculated via the XLFit (IDBS Version 5.3.1.3) Add-On to Microsoft Excel using the four parameter fit equation y=(A+((B-A)/(1+((C/x)^D)))), which appears as equation number 205 (4 Parameter Logistic Model or Sigmoidal Dose-Response Model) in XLFit.

[3] = recombinant human DPP1, H-Gly-Arg-AMC substrate 400 μM

Row | SMILES | IC50 [1, 3] | IC50 [1] | pIC50 [2]
1 | Cn1c(=O)oc2ccc(-c3ccc(C[C@@H](C#N)NC(=O)CC(N)Cc4ccccc4O)cc3)cc21 (stereo partly drawn) [Compound 228, 3-amino-N-[(1S)-1-cyano-2-[4-(3-methyl-2-oxo-1,3-benzoxazol-5-yl)phenyl]ethyl]-4-(2-hydroxyphenyl)butanamide] | ≥ 15 nM | – | –
2 | Cn1c(=O)oc2ccc(-c3ccc(C[C@@H](C#N)NC(=O)CNC(=O)c4cccs4)cc3)cc21 [Compound 239, N-[(1S)-1-cyano-2-[4-(3-methyl-2-oxo-1,3-benzoxazol-5-yl)phenyl]ethyl]-2-(thiophen-2-ylformamido)acetamide] | – | > 15 nM | –
3 | Cn1c(=O)oc2ccc(-c3ccc(C[C@@H](C#N)NC(=O)CCOC(=O)c4cccs4)cc3)cc21 [Compound 244, 2-{[(1S)-1-cyano-2-[4-(3-methyl-2-oxo-1,3-benzoxazol-5-yl)phenyl]ethyl]carbamoyl}ethyl thiophene-2-carboxylate] | ≥ 15 nM | – | –
4 | Cn1c(=O)oc2ccc(-c3ccc(C[C@@H](C#N)NC(=O)COC(=O)c4cccs4)cc3)cc21 [Compound 245, (S)-2-((1-cyano-2-(4-(3-methyl-2-oxo-2,3-dihydrobenzo[d]oxazol-5-yl)phenyl)ethyl)amino)-2-oxoethyl thiophene-2-carboxylate] | ≥ 15 nM | – | –
5 | N#Cc1ccc(-c2ccc(C[C@@H](C#N)NC(=O)C3(N)CCOCC3)cc2)cc1 [Compound 246] | 5 to 15 nM | – | ≤ 8.60
